Data published in ChEMBL document CHEMBL4393684, “Benzoic acid-derived nitrones: A new class of potential acetylcholinesterase inhibitors and neuroprotective agents” (Eur J Med Chem, 2019).

By UniProt entry, the sequences of proteins in these tests, tags left out. Residues count along the entry.
UniProt O42275, 24-633 limits assumed: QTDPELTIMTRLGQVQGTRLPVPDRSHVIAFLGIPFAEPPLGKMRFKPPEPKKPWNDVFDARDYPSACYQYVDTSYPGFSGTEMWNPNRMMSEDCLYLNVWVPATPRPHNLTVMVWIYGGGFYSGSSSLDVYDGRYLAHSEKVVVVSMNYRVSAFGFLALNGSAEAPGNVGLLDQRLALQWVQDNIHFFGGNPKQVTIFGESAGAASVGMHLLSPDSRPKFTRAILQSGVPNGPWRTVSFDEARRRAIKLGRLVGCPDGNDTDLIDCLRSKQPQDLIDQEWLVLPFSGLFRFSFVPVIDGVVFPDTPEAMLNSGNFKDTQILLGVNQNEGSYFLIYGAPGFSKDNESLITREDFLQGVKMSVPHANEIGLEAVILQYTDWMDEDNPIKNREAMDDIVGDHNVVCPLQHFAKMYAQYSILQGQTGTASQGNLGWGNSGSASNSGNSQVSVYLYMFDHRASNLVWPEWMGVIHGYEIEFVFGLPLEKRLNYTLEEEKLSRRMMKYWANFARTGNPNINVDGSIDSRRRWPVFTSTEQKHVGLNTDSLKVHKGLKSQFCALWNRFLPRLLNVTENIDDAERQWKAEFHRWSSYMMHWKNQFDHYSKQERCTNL

target: Acetylcholinesterase (Electrophorus electricus, UniProt O42275); assay: Inhibition of electric eel AChE using acetylthiocholine iodide as substrate incubated for 5 mins followed by substrate addition measured every minute for 5 mins by Ellman's method

`COc1ccc(C(=O)NCCCCCCC/C=[N+](\[O-])C(C)(C)C)cc1OC` and `COc1ccc(C(=O)NCCCCCCCCC/C=[N+](\[O-])C(C)(C)C)cc1OC` are within 1.5-fold of each other in IC50: 12.2 µM for the first, 12.6 µM for the second.

Compared with `COc1ccc(C(=O)NCCCCC/C=[N+](\[O-])C(C)(C)C)cc1OC`, `COc1cccc(C(=O)NCCCCC/C=[N+](\[O-])C(C)(C)C)c1` is 3.3-fold higher in IC50: 8.3 µM for the first, 27.2 µM for the second. The first is the more potent here.

`COc1cc(C(=O)NCCCCCCCCC/C=[N+](\[O-])C(C)(C)C)cc(OC)c1OC` and `COc1cc(C(=O)NCCCCCCC/C=[N+](\[O-])C(C)(C)C)cc(OC)c1OC` are within 1.5-fold of each other in IC50: 11.8 µM for the first, 16.9 µM for the second.

`COc1ccc(C(=O)NCCCCC/C=[N+](\[O-])C(C)(C)C)cc1` gave an IC50 of 26.1 µM.
